Laboratory results reported in ChEMBL document CHEMBL1124123, “Graphics computer-aided receptor mapping as a predictive tool for drug design: development of potent, selective, and stereospecific ligands for the 5-HT1A receptor” (J Med Chem, 1988).

Amino acid sequences for entries named in this document (tags omitted). A change or cut given only in a name is not applied to a line headed by its entry.
UniProt P30994: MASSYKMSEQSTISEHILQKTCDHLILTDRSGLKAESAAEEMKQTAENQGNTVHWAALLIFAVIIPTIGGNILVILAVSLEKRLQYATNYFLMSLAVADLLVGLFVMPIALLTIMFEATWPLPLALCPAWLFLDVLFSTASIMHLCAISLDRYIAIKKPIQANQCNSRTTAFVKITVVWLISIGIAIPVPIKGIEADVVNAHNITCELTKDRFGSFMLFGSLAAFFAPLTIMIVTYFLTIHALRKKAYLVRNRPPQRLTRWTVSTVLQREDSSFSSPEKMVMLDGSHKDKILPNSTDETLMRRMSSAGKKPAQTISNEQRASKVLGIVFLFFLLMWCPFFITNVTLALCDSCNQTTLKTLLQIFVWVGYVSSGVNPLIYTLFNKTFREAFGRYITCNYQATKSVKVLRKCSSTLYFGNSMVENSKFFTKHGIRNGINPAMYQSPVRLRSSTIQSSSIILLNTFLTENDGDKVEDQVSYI
UniProt P08909: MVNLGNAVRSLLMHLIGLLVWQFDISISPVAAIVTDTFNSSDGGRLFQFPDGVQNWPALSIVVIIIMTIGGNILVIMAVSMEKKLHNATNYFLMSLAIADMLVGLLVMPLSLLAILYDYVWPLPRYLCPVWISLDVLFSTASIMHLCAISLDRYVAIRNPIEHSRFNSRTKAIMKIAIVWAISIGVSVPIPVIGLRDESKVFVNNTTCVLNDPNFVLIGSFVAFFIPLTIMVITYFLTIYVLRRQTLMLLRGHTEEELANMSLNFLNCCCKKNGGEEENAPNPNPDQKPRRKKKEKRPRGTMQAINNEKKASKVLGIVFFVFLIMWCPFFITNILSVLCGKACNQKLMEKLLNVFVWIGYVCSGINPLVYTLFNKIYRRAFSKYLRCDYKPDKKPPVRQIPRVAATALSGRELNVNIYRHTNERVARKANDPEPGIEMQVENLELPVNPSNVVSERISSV
UniProt P14842: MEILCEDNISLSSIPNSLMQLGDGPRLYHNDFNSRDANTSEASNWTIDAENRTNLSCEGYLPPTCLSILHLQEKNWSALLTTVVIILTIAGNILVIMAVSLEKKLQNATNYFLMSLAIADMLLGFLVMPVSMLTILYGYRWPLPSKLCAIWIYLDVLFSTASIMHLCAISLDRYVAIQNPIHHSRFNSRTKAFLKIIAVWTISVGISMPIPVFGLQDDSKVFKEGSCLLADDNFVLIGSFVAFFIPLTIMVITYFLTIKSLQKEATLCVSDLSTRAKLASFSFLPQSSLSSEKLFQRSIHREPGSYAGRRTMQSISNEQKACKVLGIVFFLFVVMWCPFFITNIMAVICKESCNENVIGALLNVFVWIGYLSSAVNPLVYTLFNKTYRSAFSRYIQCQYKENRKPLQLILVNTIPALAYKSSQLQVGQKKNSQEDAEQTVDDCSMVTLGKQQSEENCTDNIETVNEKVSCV

Target: Serotonin 2 (5-HT2) receptor (Rattus norvegicus, UniProt P30994+P08909+P14842)

In the case of `O=C(CCCN1CCC2(CC1)C(=O)NCN2c1ccccc1)c1ccc(F)cc1` [SPIPERONE], the “Log IC50” value is reported as -8.67.
